Patent publication US20080161399A1, “AGENT FOR REDUCTION OF OXIDIZED ALBUMIN LEVEL” (Ajinomoto Co., Inc., priority 2005, published 2008)

Assay: Anti-oxidation performance of albumin (Fenton reaction hydroxyl radical, ESR)
Assay type: physicochemical
Settings: albumin 10 mg/ml, radical intensity by ESR, compared to reduced albumin
Procedure: For the purpose of examining whether an in vivo redox state-improving effect, which is one of the functions of albumin, is influenced by an increase in the oxidized albumin ratio, the anti-oxidation performance of albumin was measured. Samples showing 3 kinds of HSA(ox) % below were prepared from albumin (HSA) purified from normal human plasma and used for the evaluation.
1. reduced albumin: purified HSA. HSA(ox) %=21.5 2. oxidized albumin: prepared by artificially forming a disulfide bond with cysteine in the 34-position cysteine residue of HSA(red). HSA(ox) %=92.0 3. post-preservation albumin: prepared by incubating plasma at 37° C. for 18 hr to increase oxidized albumin ratio, followed by purification. HSA(ox) %=45.6
The anti-oxidation performance of albumin was determined by generating hydroxyl radical in vitro by a Fenton reaction and quantifying the intensity of generated radical with an ESR (Electron Spin Resonance) measurement device in the co-presence of various albumins.
25 μM FeSO4, 5 mM DMPO (Spin Trapping Agent) and 100 μM DETAPAC (ferrous ion chelating agent) were mixed in a test tube, and various albumins were added thereto at a concentration of 10 mg/ml. Ten seconds later, 0.5 mM H2O2 was added and they were mixed well. The intensity of hydroxyl radical generated in 1 min from 45 sec later was measured by ESR (JES-FR80S, JEOL Ltd.). […]

**Q.** With “oxidized albumin: prepared by artificially forming a disulfide bond with cysteine in the 34-position cysteine residue of HSA(red). HSA(ox) %=92.0” as the substance, how does the “ability to eliminate hydroxyl radical” value read?
**A.** weak ability to eliminate hydroxyl radical as compared to reduced albumin
